What was measured:
Mus musculus [1] = test: Protective index, ratio of TD50 for ip dosed mouse to ED50 for maximum electric stimulus-induced seizure in ip dosed mouse; assay type: functional
Mus musculus [2] = test: Protective index, ratio of TD50 for po dosed mouse to ED50 for maximum electric stimulus-induced seizure in po dosed mouse; assay type: functional
Method in brief: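 Oral version of the phase-II protocol in KunMing mice (18–25 g). Groups of 10 dosed p.o. over a range giving at least three points between 10–90% MES protection or rotarod minimal neurotoxicity. Testing at 2 h time to peak effect. ED50 and TD50 with 95% confidence intervals from regression. PI = TD50/ED50.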

With `NC(=O)N1c2ccccc2C=Cc2ccccc21` [CARBAMAZEPINE] the PI (Mus musculus [1]) was 8.1 and the PI (Mus musculus [2]) was 14.1.
